# According to PubChem BioAssay (Tox21):
# “And” between values parts separate entries of the source, which are not always exact repeats. Equal entries are not always repeated. The list shows a part of the results, in another mix than the full data. Results filed as inconclusive are left out. The source made the active and inactive calls. Calls follow the shape of the dose curve; as a rule, active = well fitted cell-killing curve with a large enough effect in the repeat runs; inconclusive = weak or mixed curves, or effect the other way; inactive = flat fitted curve, though single readings scatter.
# Key:
# [1] = cAMP Responsive Elements (CRE) small molecule antagonists, cell-based qHTS assay: qHTS cell viability counter screen (AID 2060913); details: CRE-bla HEK293T viability, CellTiter-Glo luminescence, 5 h; at 92.4 µM (top of the series) unless noted; also: nearly all actives have a fitted effect of over 40% in size
# From the text: (§1) U.S. Tox21 Program National Center for Advancing Translational Sciences [NCATS] Division of Preclinical Innovation [DPI] U.S. Environmental Protection Agency [EPA] National Institutes of Environmental Health Sciences [NIEHS] National Toxicology Program [NTP] U.S. Food and Drug Administration [FDA] Tox21 Assay Overview: CREB (cyclic-AMP Responsive Element Binding Protein) is a cellular transcription factor. It binds to certain DNA sequences called cAMP Responsive Elements (CRE) and regulates the transcription of the genes. […] This cell line can be used to find agonists/antagonists of the cyclic AMP signaling pathway. The activation of the report gene under culture conditions can be detected by fluorescence intensity. This cell line has been used to screen the Tox21 10K compound library to identify agonists that induce oxidative stress. The cytotoxicity of the Tox21 compound library against the CRE-bla cell line was tested in parallel by measuring the cell viability using CellTiter-Glo assay (Promega, Madison, WI) in the same wells.
# Tox21 Assay Protocol Summary: CRE-bla Hek 293T cells were suspended in assay medium (DMEM containing 10% dialyzed FBS, 0.1 mM NEAA, 1 mM sodium pyruvate and 25 mM HEPES) and dispensed at 2,000 cells/4 uL /well into 1536-well black wall/clear bottom plates using a Multidrop Combi (ThermoFisher Scientific, Waltham, MA) dispenser. After the assay plates were incubated at 37 C/5% CO2 for 18 hrs, 23 nL of compounds dissolved in DMSO, positive controls or DMSO only was transferred to the assay plate by a pintool workstation (Kalypsys, San Diego, CA), followed by addition of 1 uL of 1.25uM NKH477 (0.25 uM as final concentration) in assay medium using a Flying Reagent Dispenser (Aurora Discovery, San Diego, CA). The plates were incubated at 37 C and 5% CO2 for 3 hrs. Then 1 uL of LiveBLAzer B/G FRET substrate (Invitrogen, Carlsbad, CA) was added to each well using Bioraptr Flying Reagent Dispenser (FRD, Aurora Discovery, San Diego, CA). The plates were incubated at room temperature for 2 h, then fluorescence intensities were measured using an Envision plate reader (PerkinElmer, Shelton, CT) at Excitation 405nm, Emission 460nm and 530nm. The % activity was determined from the ratio of 460nm/530nm. For cell viability readout that measures cytotoxicity, 4 uL /well of CellTiter-Glo reagent was added into the assay plates using Bioraptr FRD. After 30 min incubation at room temperature, the luminescence intensity in the assay plates was measured using a ViewLux (PerkinElmer, Shelton, CT) plate reader.
# [2] = cAMP Responsive Elements (CRE) small molecule agonists, cell-based qHTS assay: qHTS cell viability counter screen (AID 2060914); details: CRE-bla HEK293T viability, CellTiter-Glo luminescence, 5 h; at 92.4 µM (top of the series) unless noted;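 also: viability read after 3 h of compound exposure; nearly all actives have a fitted effect of over 50% in size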
# From the text: National Center for Advancing Translational Sciences [NCATS]
# Division of Preclinical Innovation [DPI]
# U.S. Environmental Protection Agency [EPA]
# National Institutes of Environmental Health Sciences [NIEHS]
# National Toxicology Program [NTP]
# U.S. Food and Drug Administration [FDA]
# as §1, with “CREB” for “U.S. Tox21 Program National Center for Advancing Translational Sciences [NCATS] Division of Preclinical Innovation [DPI] U.S. Environmental Protection Agency [EPA] National Institutes of Environmental Health Sciences [NIEHS] National Toxicology Program [NTP] U.S. Food and Drug Administration [FDA] Tox21 Assay Overview: CREB”
# Tox21 Assay Protocol Summary:
# CRE-bla Hek 293T cells were suspended in assay medium (DMEM containing 10% dialyzed FBS, 0.1 mM NEAA, 1 mM sodium pyruvate and 25 mM HEPES) and dispensed at 2,000 cells/5 uL /well into 1536-well black wall/clear bottom plates using a Multidrop Combi (ThermoFisher Scientific, Waltham, MA) dispenser. After the assay plates were incubated at 37 C/5% CO2 for 18 hrs, 23 nL of compounds dissolved in DMSO, positive controls or DMSO only was transferred to the assay plate by a pintool workstation (Kalypsys, San Diego, CA). After the plates were incubated at 37 C/5% CO2 for 3 hrs, 1 uL of LiveBLAzer B/G FRET substrate (Invitrogen, Carlsbad, CA) was added to each well using Bioraptr Flying Reagent Dispenser (FRD, Aurora Discovery, San Diego, CA). The plates were incubated at room temperature for 2 h, then fluorescence intensities were measured using an Envision plate reader (PerkinElmer, Shelton, CT) at Excitation 405nm, Emission 460nm and 530nm. The % activity was determined from the ratio of 460nm/530nm. For cell viability readout that measures cytotoxicity, 4 uL /well of CellTiter-Glo reagent was added into the assay plates using Bioraptr FRD. After 30 min incubation at room temperature, the luminescence intensity in the assay plates was measured using a ViewLux (PerkinElmer, Shelton, CT) plate reader.
# % is scaled to controls: 0 for no effect and ±100 for the full control effect.
SMILES,"viability change, negative = cytotoxic [1]","activity change, negative = cytotoxicity [2]"
ClCCNCCCl,inactive: -1.57%,inactive: -0.542%
CCC(=O)N(c1ccccc1)C1CCNCC1,inactive: 12.3% [at 42.5 µM],inactive: -6.64% [at 42.5 µM]
CCOC(=O)N1CCC(=O)CC1,inactive: -1.31% [at 42.5 µM],inactive: -0.882% [at 42.5 µM]
CCOP(=O)(Cl)Cl,inactive: 15% and inactive: -2.24%,inactive: 2.68% and inactive: -9.86%
CCOP(=S)(Cl)OCC,inactive: -6.19%,inactive: -9.75%
ClCCOP(OCCCl)OCCCl,inactive: 2.71% and inactive: -3.93%,inactive: -5.94% and inactive: -10.2%
CC(C)OP(OC(C)C)OC(C)C,inactive: 7.28%,inactive: -4.17%
O=[N+]([O-])c1ccccc1[N+](=O)[O-],inactive: 4.68% and inactive: 0.224%,inactive: 2.78% and inactive: -2.33%
